In experiment [1] the target is cellular GLS activity in PC3 cells (Homo sapiens (Human), UniProt O94925). As to the kind of experiment: GLS Cell Potency Assay (PC3 coupled assay measuring cellular glutamate depletion). Type of experiment: cell-based. To be noted: PC3 cells, 6 h incubation, glutamate depletion; read-out: Assay b) GLS cell MOA Mean IC50. From the text: (§1) The following assays were used to measure the effects of the compounds described herein: a) GLS Enzyme Potency Assay; b) GLS Cell Potency Assay; c) GLS Cell Proliferation Assay. During the description of the assays, generally: • i. The following abbreviations have been used: CO2=Carbon dioxide; DMEM=Dulbecco's Modified Eagle Medium; DMSO=Dimethyl sulphoxide; EDTA=Ethylenediaminetetraacetic acid; EGTA=Ethylene glycol tetraacetic acid; FCS=Foetal calf serum; h=Hour(s); NBS=Non-binding surface; SDS=Sodium dodecyl sulphate; TRIS=Tris(Hydroxymethyl)aminomethane. • ii. IC50 values were calculated using a smart fitting model in Genedata.
Assay b): GLS Cell Potency Assay
Compounds were assessed for their potential to inhibit cellular GLS activity by use of a PC3 coupled assay measuring cellular glutamate depletion. […] DMSO concentration was maintained at 0.3% by back filling with DMSO solution. PC3 cells were grown in phenol free DMEM, 10% dialyzed FCS, 2 mM glutamine and following dispersal by trypsinisation were plated at 5.6×10^3 cells per well in 40 μl of growth medium directly into the 384 well assay plates containing dispensed compound. After incubation for 6 h at 37° C., 5% CO2 growth media was aspirated and cells lysed in 15 μl of buffer containing 10 mM TRIS pH7.4, 100 mM NaCl, 1 mM EDTA, 1 mM EGTA, 1 mM NaF, 20 mM Na4P2O7, 2 mM Na3VO4, 1% Triton X-100, 10% glycerol, 0.1% SDS and 0.5% deoxycholate.

The chains behind the UniProt entries cited, without tags or fusion partners. Residues count along the entry.
UniProt O94925, 73-669: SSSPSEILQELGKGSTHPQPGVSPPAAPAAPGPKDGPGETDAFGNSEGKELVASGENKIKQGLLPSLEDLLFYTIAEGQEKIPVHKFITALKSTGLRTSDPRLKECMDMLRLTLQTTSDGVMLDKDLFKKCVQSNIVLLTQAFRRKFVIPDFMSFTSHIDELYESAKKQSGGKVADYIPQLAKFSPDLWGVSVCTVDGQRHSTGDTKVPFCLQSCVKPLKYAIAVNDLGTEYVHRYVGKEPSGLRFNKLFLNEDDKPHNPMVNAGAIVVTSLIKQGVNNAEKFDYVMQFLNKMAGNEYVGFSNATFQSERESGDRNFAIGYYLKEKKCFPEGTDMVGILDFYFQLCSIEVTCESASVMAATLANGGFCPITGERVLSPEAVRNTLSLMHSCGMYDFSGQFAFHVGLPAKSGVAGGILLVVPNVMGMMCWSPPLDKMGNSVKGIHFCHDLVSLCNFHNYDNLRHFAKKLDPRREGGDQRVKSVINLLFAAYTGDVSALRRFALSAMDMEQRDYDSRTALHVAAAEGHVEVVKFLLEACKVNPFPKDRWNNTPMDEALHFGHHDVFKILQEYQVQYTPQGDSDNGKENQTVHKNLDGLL
UniProt O94925, 63-669: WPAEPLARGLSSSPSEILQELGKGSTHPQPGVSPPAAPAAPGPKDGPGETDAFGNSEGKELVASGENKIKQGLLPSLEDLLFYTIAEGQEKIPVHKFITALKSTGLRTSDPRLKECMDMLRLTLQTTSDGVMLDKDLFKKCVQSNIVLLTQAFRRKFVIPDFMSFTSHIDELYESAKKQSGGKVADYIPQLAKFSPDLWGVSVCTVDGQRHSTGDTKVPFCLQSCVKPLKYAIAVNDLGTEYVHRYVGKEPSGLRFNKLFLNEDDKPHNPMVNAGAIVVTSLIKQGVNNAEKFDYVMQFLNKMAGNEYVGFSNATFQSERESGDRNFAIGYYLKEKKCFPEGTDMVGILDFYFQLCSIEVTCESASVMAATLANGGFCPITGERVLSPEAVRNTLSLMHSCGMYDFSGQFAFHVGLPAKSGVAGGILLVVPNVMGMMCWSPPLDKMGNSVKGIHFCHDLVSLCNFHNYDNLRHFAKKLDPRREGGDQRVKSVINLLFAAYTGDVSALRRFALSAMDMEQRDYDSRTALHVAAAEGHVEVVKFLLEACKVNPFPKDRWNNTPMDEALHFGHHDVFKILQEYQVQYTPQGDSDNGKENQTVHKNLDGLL

Experiment [2] concerns the target GLS1 (Homo sapiens (Human), UniProt O94925). As to the kind of experiment: GLS Enzyme Potency Assay (Glutamate Oxidase/AmplexRed coupled assay). The format is biochemical. To be noted: 6His tagged GLS protein (amino acids 63-669), recombinant; read-out: Assay a) enz IC50.
Excerpt: as §1
Assay a): GLS Enzyme Potency Assay
A Glutamate Oxidase/AmplexRed coupled assay was used to measure the ability of compounds to bind to and inhibit the activity of GLS1 in vitro. […] GLS1 was diluted to 2× working concentration and incubated at room temperature to allow the tetrameric/dimeric forms to reach steady state. Assay measurements were performed in buffer comprising 50 mM TRIS pH 7.8, 100 mM NaPO4, pH 7.8, 0.001% v/v Tween20. Purified recombinant GLS1 protein was diluted in assay buffer to 12 nM and pre-incubated at room temperature for 30 minutes. […] DMSO concentration was maintained at 2% by back filling with DMSO solution. 3 μL of diluted GLS1 protein (12 nM) was then dispensed into each well using a BioRaptr automated dispenser (Beckman-Coulter) and incubated for 15 minutes at room temperature. 3 μL of 100 mM glutamine diluted in assay buffer was then added and the reaction incubated at room temperature for 60 minutes. […] An artefact version of the assay where the 6His tagged GLS protein and glutamine were replaced with assay buffer was also used to rule out non specific effects on the assay components.

SMILES strings stand for the structures.

The text below walks through data of US10323028B2, “1,3,4-thiadiazole compounds and their use in treating cancer” (AstraZeneca AB, priority 2015, dated 2019).

Consider `CO[C@H](C(=O)Nc1nnc(N[C@@H]2CCN(c3cccnn3)C2)s1)c1cccc(N2CC(F)(F)C2)c1` (single isomer, unassigned) [2(b)], for which, in experiment [1], the IC50 is 4.11 nM. In the case of `COC[C@H](C(=O)Nc1nnc(N[C@@H]2CCN(c3cccnn3)C2)s1)c1cccc(OC)c1` (single isomer, unassigned) [5(b)], in experiment [1], the IC50 was determined as 18.1 nM.

For `COC1CN(c2cccc([C@H](OC)C(=O)Nc3nnc(N[C@@H]4CCN(c5ccc(F)nn5)C4)s3)c2)C1` (single isomer, unassigned) [9(b)], in experiment [1], the 50% inhibitory concentration (IC50) was 36.4 nM.

Regarding `COC1CN(c2cccc([C@H](OC)C(=O)Nc3nnc(N[C@@H]4CCN(c5ccc(C)nn5)C4)s3)c2)C1` (single isomer, unassigned) [12(b)], in experiment [1], the IC50 was found to be 83.6 nM. For the compound `CCO[C@H](C(=O)Nc1nnc(N[C@@H]2CCN(c3cccnn3)C2)s1)c1cccc(OC(F)F)c1` (single isomer, unassigned) [17(b)], the IC50 in experiment [1] was 7.11 nM. Regarding `CCO[C@H](C(=O)Nc1nnc(N[C@@H]2CCN(c3cccnn3)C2)s1)c1cccc(OC(F)(F)F)c1` (single isomer, unassigned) [19(b)], the half-maximal inhibitory concentration (IC50) in experiment [1] was 3.07 nM. In the case of `CO[C@H](C(=O)Nc1nnc(N[C@@H]2CCN(c3cccnn3)C2)s1)c1ccc(F)c(OC(F)(F)F)c1` (single isomer, unassigned) [20(b)], in experiment [1], the IC50 is 0.841 nM.

Take `CO[C@H](C(=O)Nc1nnc(N[C@@H]2CCN(c3cccnn3)C2)s1)c1cccc(N2CC(F)(F)C2)c1` (single isomer, unassigned) [Example 2(a)]: the IC50 in experiment [1] turned out to be 0.245 nM; in experiment [2], 87.2 nM. On the same counts, the results for `COC[C@H](C(=O)Nc1nnc(N[C@@H]2CCN(c3cccnn3)C2)s1)c1cccc(OC)c1` (single isomer, unassigned) [Example 5(a)] are 1.22 nM and 28.8 nM. `CCO[C@H](C(=O)Nc1nnc(N[C@@H]2CCN(c3cccnn3)C2)s1)c1cc(OC)cc(OC)c1` (single isomer, unassigned) [Example 6(a)]: in experiment [2], the IC50 is 28 nM.

For the compound `COC1CN(c2cccc([C@H](OC)C(=O)Nc3nnc(N[C@@H]4CCN(c5ccc(F)nn5)C4)s3)c2)C1` (single isomer, unassigned) [Example 9(a)], the IC50 in experiment [1] turned out to be 1.02 nM; in experiment [2], 59.1 nM. The matching figures for `COC1CN(c2cccc([C@H](OC)C(=O)Nc3nnc(N[C@@H]4CCN(c5ccc(C)nn5)C4)s3)c2)C1` (single isomer, unassigned) [Example 12(a)]: 1.93 nM and 43.8 nM.

With `CCO[C@H](C(=O)Nc1nnc(N[C@@H]2CCN(c3cccnn3)C2)s1)c1cccc(OC(F)F)c1` (single isomer, unassigned) [Example 17(a)], the IC50 in experiment [2] turned out to be 50.4 nM. In the case of `CCO[C@H](C(=O)Nc1nnc(N[C@@H]2CCN(c3cccnn3)C2)s1)c1cccc(OC(F)(F)F)c1` (single isomer, unassigned) [Example 19(a)], the IC50 stood at 0.473 nM in experiment [1] and 40.1 nM in experiment [2]. With `CO[C@H](C(=O)Nc1nnc(N[C@@H]2CCN(c3cccnn3)C2)s1)c1ccc(F)c(OC(F)(F)F)c1` (single isomer, unassigned) [Example 20(a)], the 50% inhibitory concentration (IC50) in experiment [1] was 2.07 nM; in experiment [2], 69.3 nM.
